Assay results: patent US20260242438A1, “INSULIN HYBRID PEPTIDE COMPRISING CHYMOTRYPSIN INHIBITORY PEPTIDE, AND USE THEREOF” (INSTITUTE OF MATERIA MEDICA, CHINESE ACADEMY OF MEDICAL …, priority 2022, published 2026)

Key:
[1] = target: T1, chymotrypsin (Bos taurus, UniProt P00766); test: Stability of insulin and insulin hybrid peptides against chymotrypsin hydrolysis (RP-HPLC remaining peak area); assay type: in vitro ADME; settings: peptide 60 μM, chymotrypsin 1.0 ng/μL, 37° C.
Experimental: Control test: […] Mix by centrifugation at 8000 rpm for 30 seconds.

[2] = target: T1, chymotrypsin; test: Determination of enzyme inhibitory activity against chymotrypsin (substrate AAPFpNA, OD 405 nm); assay type: biochemical; settings: peptide 0.1 μM; read-out: Residual activity of chymotrypsin
Experimental: The substrates N-succinyl-Ala-Ala-Pro-Phe-p-nitroaniline (AAPFpNA) is used in competitive binding reaction to determine the inhibitory activities against α -chymotrypsin. Experiments for a-chymotrypsin was measured in 20 mM CaCl2, 50 mM Tris-HCl buffer (pH 7.8). The concentration of the peptide was measured using optical density (OD) at 280 nm. The Michaelis constant (Km) of the enzyme hydrolysis substrate is calculated from the initial rate of substrate hydrolysis at 405 nm. The absorbance value of the substrate was measured at 405 nm after complete hydrolysis. All data were processed using nonlinear regression.
(1) Added a total 190 μL of reaction buffer (20 mM CaCl2, 50 mM Tris-HCl (pH 7.8)), different concentrations of anti-chymorypsin peptides (CHs) into the pre-cold 96 well plate, followed by preheating at 37° C. for 5 min and centrifugated at 500 rpm for 1 min and allowed to stand for 4 minutes. Then added 8 μL of 750 nM chymotrypsin and incubated at 37° C. for 10 min, and centrifugated at 500 rpm for 1 min and allowed to stand for 9 minutes. Finally, added 2 μL of 50 mM AAPFpNA, and mixed by centrifugation at 500 rpm for 1 min. The plate was incubated at 37° C. for 90 min, and the absorbance value at 405 nm was measured. […]

Compound | Remaining peak area (%)/chymotrypsin ([1]; 0.0 h) [%] | Remaining peak area (%)/chymotrypsin ([1]; 0.5 h) [%] | Remaining peak area (%)/chymotrypsin ([1]; 1.0 h) [%] | Remaining peak area (%)/chymotrypsin ([1]; 2.0 h) [%] | Remaining peak area (%)/chymotrypsin ([1]; 3.0 h) [%] | Remaining peak area (%)/chymotrypsin ([1]; 4.0 h) [%] | Remaining peak area (%)/chymotrypsin ([1]; 4.0 h, listed as human insulin) | remaining activity at 0.1 µM [2] [%]
Insulin | 100.0 ± 0.0 | 70.7 ± 3.0 | 57.4 ± 2.3 | 36.5 ± 1.0 | 21.7 ± 2.1 | 10.3 ± 0.7 | about 10.3% | 
CC[C@H](C)[C@@H]1NC(=O)[C@@H]2CCCN2C(=O)[C@@H]2CCCN2C(=O)[C@H]([C@@H](C)CC)NC(=O)[C@H](CO)NC(=O)[C@H](Cc2ccc(O)cc2)NC(=O)[C@H]([C@@H](C)O)NC(=O)[C@@H](NC(=O)[C@H](CCCNC(=N)N)NC(=O)CN)CSSC[C@@H](C(=O)N[C@@H](Cc2ccccc2)C(=O)O)NC1=O [CH57] |  |  |  |  |  |  |  | 10.3 ± 1.7
